Target: Glycogen synthase kinase-3 beta (GSK3β) (Homo sapiens, UniProt P49841)
Assay: in vitro fluorescence-based Z'-LYTE kinase assay, 10-point dose-response

Amino acid sequences for entries named in this document (tags omitted).
UniProt P49841, whole entry: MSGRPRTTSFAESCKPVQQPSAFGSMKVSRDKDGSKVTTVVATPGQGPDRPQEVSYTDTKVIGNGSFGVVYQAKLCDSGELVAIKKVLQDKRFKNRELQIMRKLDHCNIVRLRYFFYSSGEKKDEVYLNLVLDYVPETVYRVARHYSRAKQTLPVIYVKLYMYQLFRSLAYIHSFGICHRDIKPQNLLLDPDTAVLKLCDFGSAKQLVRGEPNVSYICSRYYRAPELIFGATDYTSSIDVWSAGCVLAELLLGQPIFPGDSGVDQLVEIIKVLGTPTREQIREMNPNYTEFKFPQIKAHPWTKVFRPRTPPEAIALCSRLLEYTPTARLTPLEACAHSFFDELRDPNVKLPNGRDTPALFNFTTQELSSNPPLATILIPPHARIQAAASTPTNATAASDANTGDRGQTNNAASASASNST

Row | IC50 | SMILES
1 | 5.81 µM | COC(=O)c1ccc2occ(-c3oc4ccc(C(=O)OC)cc4c3OCC(=O)Nc3cc(C)cc(C)c3)c2c1
2 | 0.64 µM | O=C(Nc1ccc2nc(C(F)F)[nH]c2c1)c1ccnc2[nH]c(CC3CC3)nc12
